Earlier results, collected in patent publication US20110230399A1, “Methods for Treating Obesity Related Disease” (priority 2008, published 2011).

The chains behind the UniProt entries cited, without tags or fusion partners.
UniProt P49146, whole entry, species assumed: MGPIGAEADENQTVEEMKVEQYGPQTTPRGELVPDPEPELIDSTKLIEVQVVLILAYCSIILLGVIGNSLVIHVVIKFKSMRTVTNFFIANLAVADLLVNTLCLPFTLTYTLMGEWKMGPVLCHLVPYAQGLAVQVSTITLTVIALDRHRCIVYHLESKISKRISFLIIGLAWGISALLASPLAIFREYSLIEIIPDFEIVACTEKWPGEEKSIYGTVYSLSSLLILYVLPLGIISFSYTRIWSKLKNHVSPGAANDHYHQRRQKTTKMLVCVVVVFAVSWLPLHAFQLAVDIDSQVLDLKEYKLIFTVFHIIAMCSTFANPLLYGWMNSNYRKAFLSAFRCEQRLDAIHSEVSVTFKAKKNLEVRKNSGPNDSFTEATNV
UniProt P25929, whole entry: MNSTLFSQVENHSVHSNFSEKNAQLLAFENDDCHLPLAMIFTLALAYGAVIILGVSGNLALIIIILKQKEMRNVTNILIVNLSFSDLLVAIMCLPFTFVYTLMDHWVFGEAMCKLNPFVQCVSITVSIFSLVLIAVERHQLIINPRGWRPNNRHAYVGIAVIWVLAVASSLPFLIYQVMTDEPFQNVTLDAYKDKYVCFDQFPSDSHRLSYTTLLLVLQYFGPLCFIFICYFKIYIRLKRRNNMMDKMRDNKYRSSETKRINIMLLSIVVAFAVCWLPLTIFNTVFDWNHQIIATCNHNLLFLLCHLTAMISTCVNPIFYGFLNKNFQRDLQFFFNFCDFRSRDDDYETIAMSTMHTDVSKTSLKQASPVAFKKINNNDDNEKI

Experiments:
Y2 receptor = Y2 receptor (Homo sapiens, UniProt P49146)
Y1 receptors = Y1 receptors (Homo sapiens, UniProt P25929)

Which “agonist activity at the Y2 receptor” value (Y2 receptor) does the source give for “NPY13-36: Neuropeptide Y fragment 13-36; full agonist at the Y2 receptor” here?
Its value is “full agonist”.

And the “binding to Y1 receptors” value (Y1 receptors)?
The value was “does not bind”.
